Literature values as cited in US20180291335A1, “MODIFIED POLYNUCLEOTIDES FOR ALTERING CELL PHENOTYPE” (ModernaTX, Inc., priority 2012, published 2018).

Settings: in vivo, iv; cited from earlier work

Substance: penta[3-(1-laurylaminopropionyl)]-triethylenetetramine hydrochloride [Compound 98N12-5]
- distribution of the formulation to the liver: greater than 90%
